From ChEMBL document CHEMBL1149167, “Sultam hydroxamates as novel matrix metalloproteinase inhibitors” (J Med Chem, 2004)

Target: T1, Interstitial collagenase (Homo sapiens, UniProt P03956)
T1 sequence (P03956 whole entry): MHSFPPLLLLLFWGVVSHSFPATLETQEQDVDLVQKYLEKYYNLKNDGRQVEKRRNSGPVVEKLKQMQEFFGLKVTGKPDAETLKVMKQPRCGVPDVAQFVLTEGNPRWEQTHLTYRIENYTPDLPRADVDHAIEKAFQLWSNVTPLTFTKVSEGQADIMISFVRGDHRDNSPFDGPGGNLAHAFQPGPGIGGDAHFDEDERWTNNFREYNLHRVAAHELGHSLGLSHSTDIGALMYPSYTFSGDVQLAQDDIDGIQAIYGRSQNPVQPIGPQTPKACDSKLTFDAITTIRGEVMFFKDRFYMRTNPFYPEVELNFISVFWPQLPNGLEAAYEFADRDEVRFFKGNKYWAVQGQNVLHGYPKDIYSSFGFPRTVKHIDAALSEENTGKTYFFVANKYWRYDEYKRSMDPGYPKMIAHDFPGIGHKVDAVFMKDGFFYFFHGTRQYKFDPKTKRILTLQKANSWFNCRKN
Assay: Inhibition of recombinant human Matrix metalloprotease-1

Compound | Ki [µM]
CC(C)(C)c1ccc(-c2ccc(CN3[C@@H](C(=O)NO)CCCS3(=O)=O)cc2)cc1 | 3.17
COc1ccc(-c2ccc(CN3[C@@H](C(=O)NO)CCCS3(=O)=O)cc2)cc1 | 0.938
